The values that follow come from US20240307372A1, “COMPOSITIONS AND METHODS TO IMPROVE BENEFIT OF SUBOPTIMALLY ADMINISTERED THERAPEUCTICS FOR THE TREATMENT OF BENIGN AND NEOPLASTIC DISEASES, INFECTIONS, INFLAMMATORY, METABOLIC AND IMMUNOLOGIAL DISEASES” (priority 2023, published 2024).

Chains of the proteins cited; added tags and fusions are not shown. Lines headed by an entry give the natural chain unless they say otherwise; changes in a name come on top.
UniProt Q13555: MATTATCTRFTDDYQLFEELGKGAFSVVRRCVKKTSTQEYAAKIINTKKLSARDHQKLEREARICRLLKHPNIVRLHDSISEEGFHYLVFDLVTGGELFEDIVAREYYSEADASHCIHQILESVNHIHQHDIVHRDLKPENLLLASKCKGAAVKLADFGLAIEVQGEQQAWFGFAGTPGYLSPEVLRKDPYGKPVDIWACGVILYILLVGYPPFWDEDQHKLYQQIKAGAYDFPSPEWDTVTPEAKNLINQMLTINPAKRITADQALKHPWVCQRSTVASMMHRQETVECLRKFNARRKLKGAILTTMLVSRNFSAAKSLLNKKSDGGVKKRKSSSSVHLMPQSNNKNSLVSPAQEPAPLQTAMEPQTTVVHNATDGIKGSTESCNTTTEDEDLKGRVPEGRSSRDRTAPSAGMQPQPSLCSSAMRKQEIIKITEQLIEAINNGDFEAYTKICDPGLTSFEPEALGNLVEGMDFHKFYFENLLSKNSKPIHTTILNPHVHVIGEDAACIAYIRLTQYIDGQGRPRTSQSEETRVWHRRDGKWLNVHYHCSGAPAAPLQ

“And” between values parts separate entries of the source, which are not always exact repeats. Identical values can stand only once.

In this experiment the target is CAMKII gamma (Homo sapiens, UniProt Q13555). Kind of experiment: CAMKII gamma kinase activity, ADP Glo (Promega). (ADP-Glo turns the ADP formed in a reaction into a luminescent signal.)

In general, % inhibition refers to the drop in the measured response relative to a control, in per cent. Regarding `CN[C@@H]1C[C@H]2O[C@@](C)([C@@H]1OC)n1c3ccccc3c3c4c(c5c6ccccc6n2c5c31)C(=O)NC4` [Staurosporin, reference compound], the “% DMSO” value was determined as 21% (10 nM, 10 uM ATP); 59% (10 nM, 50 uM ATP); 5% (100 nM, 10 uM ATP); 5% (100 nM, 50 uM ATP). For the same compound, the “% inhibition” value by setting is: (10 nM, 10 uM ATP) 79.0%; (10 nM, 10 uM ATP, listed as staurosporin) 79%; (10 nM, 50 uM ATP) 41%; (100 nM, 10 uM ATP) 95.4%; (100 nM, 10 uM ATP, listed as staurosporin) 95%; (100 nM, 50 uM ATP) 95%. Also, the “CamKIIγ activity, mean” value is, setting by setting: (10 nM, 10 uM ATP) 0.915 units; (10 nM, 50 uM ATP) 7.285 units; (100 nM, 10 uM ATP) 0.2 units; (100 nM, 50 uM ATP) 0.635 units. In addition, the “CamKIIγ activity, units (duplicates)” value was 0.93 units and 0.9 units (10 nM, 10 uM ATP); 0.25 units and 0.15 units (100 nM, 10 uM ATP); 0.67 units and 0.6 units (100 nM, 50 uM ATP). Where the note is “10 or 50 uM ATP”, the “CAMKII gamma kinase activity inhibition (in words)” value is on record as “effective as a positive control”.
